Values of other authors as cited in article PMC11609626 (Cancer Discovery, 2024).

Tested on: ALK^+ NSCLC
Settings: ensartinib vs crizotinib; cited from earlier work

C[C@@H](Oc1cc(-c2cnn(C3CCNCC3)c2)cnc1N)c1c(Cl)ccc(F)c1Cl [Crizotinib]
mPFS: 12.7 months
